Assay: Hygroscopicity of solid state salts under storage at ambient and humid conditions
Type: physicochemical
Details: storage at ambient and humid (40 C, 75% RH) conditions

Pregabalin p-toluene Sulfonate [pregabalin tosylate]
hygroscopicity: non-hygroscopic
